From patent US20020164716A1 (GENETICS INSTITUTE, published 2002) come the findings set out here.

The target of assay [1] is T1, MBP fusion protein containing 1TU (Homo sapiens (Human), UniProt Q8TEL6 488-797, limits assumed).
T1 construct: Purified, bacterially expressed; also called MBP-1TU
T1 sequence: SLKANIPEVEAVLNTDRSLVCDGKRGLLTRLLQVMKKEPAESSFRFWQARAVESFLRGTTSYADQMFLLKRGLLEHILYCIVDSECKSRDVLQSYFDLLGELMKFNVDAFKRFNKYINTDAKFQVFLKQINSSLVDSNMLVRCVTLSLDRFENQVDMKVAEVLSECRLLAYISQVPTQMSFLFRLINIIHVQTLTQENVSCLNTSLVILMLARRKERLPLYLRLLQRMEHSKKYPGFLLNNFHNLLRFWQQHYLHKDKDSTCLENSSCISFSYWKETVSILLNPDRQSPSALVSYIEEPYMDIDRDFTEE
Nature of the assay: pull-down on glutathione beads, Western blot with anti-MBP antibody. The method, then: (§1) The reaction ws performed at 4° C. for 2 hours and centrifuged to remove unbound fraction (Unbound). The beads were then washed with 500 μl binding buffer four times and resuspended into SDS-sample buffer (Bound).
On the technique in general: A western blot detects proteins with antibodies after separation by electrophoresis.

The target in assay [2] is T2, MBP fusion protein containing 27TU (Homo sapiens (Human), UniProt Q8WXG6, in part).
T2 construct: Purified, bacterially expressed; also called MBP-27TU
The assay is described as above. The method, then:
as §1

B1: GST protein alone (other, UniProt P08515 1-218, looked up)
chain: MSPILGYWKIKGLVQPTRLLLEYLEEKYEEHLYERDEGDKWRNKKFELGLEFPNLPYYIDGDVKLTQSMAIIRYIADKHNMLGGCPKERAEISMLEGAVLDIRYGVSRIAYSKDFETLKVDFLSKLPEMLKMFEDRLCHKTYLNGDHVTHPDFMLYDALDVVLYMDPMCLDAFPKLVCFKKRIEAIPQIDKYLKSSKYIAWPLQGWQATFGGGDHPPK
notes: Control on glutathione beads; also called glutathione-S-transferase
In the case of B1, the binding result in assay [1] and in assay [2] was “no binding (tested: 3 µg)” throughout.
